PubChem BioAssay AID504660 (National Center for Advancing Translational Sciences (NCATS), 2011)
Where “and” joins values, the source holds several entries; their conditions need not be identical. Identical values can stand only once. The entries are a selection whose mix differs from that of the whole data set. Calls of active or inactive are those of the source. Cut-off read from the data, not from the text of the source: active = activation above about 30%; inactive = the rest.

The chains behind the UniProt entries cited, without tags or fusion partners.
UniProt P21728, whole entry, looked up: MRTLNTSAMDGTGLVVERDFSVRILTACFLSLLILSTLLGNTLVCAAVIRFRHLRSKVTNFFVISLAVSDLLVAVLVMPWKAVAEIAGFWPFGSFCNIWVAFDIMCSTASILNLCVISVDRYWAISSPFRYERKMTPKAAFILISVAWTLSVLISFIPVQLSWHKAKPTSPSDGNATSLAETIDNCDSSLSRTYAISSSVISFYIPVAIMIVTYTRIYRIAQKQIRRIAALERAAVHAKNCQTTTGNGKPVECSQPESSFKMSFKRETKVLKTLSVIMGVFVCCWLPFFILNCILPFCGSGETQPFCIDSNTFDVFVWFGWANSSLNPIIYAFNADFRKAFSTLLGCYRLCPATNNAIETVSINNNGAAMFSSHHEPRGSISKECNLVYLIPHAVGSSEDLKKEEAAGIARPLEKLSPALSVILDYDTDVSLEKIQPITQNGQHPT

Each compound was assayed against D(1A) dopamine receptor (Homo sapiens) (UniProt P21728) (assay: Allosteric Agonists of the Human D1 Dopamine Receptor: qHTS). Settings: HEK293 T-REx D1 cells, calcium flux, agonist mode; at 2 µM; stronger effect = higher value.
From the text: NIH Chemical Genomics Center [NCGC] NIH Molecular Libraries Probe Centers Network [MLPCN] MLPCN Grant: NS064831-01 Assay Submitter (PI): David Sibley Dopamine receptors (DARs) are involved in the etiology and/or therapy of a number of neuropsychiatric and endocrine disorders. For instance, all receptor-based antiparkinsonian drugs work via stimulating the D1 DAR subtype whereas all FDA-approved antipsychotic agents are antagonists of this receptor. […] There are three different types of allosteric modulators that we are seeking, two of which will stimulate or augment receptor signaling, allosteric agonists and potentiators, while the third, allosteric antagonists, will attenuate receptor signaling. The present primary screening assay measures compound agonism by tracking calcium flux in a […], inducible Hek293 Trex D1 cell line.
Freshly passaged cells are plated in 1536 well black, clear bottom plates at a density of 4000 cells/well in 3 ul of complete media containing 1x tetracycline inducer. After an overnight incubation at […] in 5% CO2, cells are loaded with 2 ul of the no wash Calcium Assay Kit (ABD Bioquest) and incubated at room temperature for 30 to 90 minutes. Agonist read: A 10 cycle (1 second/cycle) baseline measurement is taken and then the FDSS online 1536 pintool delivers 23 nl of compound library (as well as dopamine controls) to the plate. The plate is measured for kinetically at 1 cycle/sec for 180 seconds and is considered to be the agonist portion of the assay (eg, compounds which activate a positive calcium response during this portion are flagged as potential agonists). Following the 180 second read, 1 ul of either an EC20 (positive modulation assay) or EC80 (negative modulation assay) is delivered by an onboard pipette head. Measurements are taken kinetically for an additional 180 seconds.
Note: 0% is about no effect.

Row | Compound | activation
1 | Nc1cc(N)c2nonc2c1[N+](=O)[O-] | inactive: 2.03%
2 | Cc1c2non([O-])c-2c(C)[n+](=O)[n+]1[O-] | inactive: -1.26%
3 | O=C(NC(Sc1ccncn1)C(Cl)(Cl)Cl)c1ccccc1 (stereo unspecified) | inactive: 2.19%
4 | Oc1ccccc1CNc1ccccn1 | inactive: 1.16%
5 | Cc1ccc(OP(=O)(Nc2nccs2)Oc2ccc(C)cc2)cc1 | inactive: 1.3%
6 | COc1ccccc1OP(=O)(Nc1ccc(C)cn1)Oc1ccccc1OC | inactive: -0.659%
7 | Clc1ccc(Cl)c(NC2=NCC(CBr)S2)c1 (stereo unspecified) | inactive: 2.89%
8 | CN1CCCC(OC(=O)C(c2ccccc2)c2ccccc2)C1 (stereo unspecified) | inactive: 5.72%
9 | NC(=O)c1cc([N+](=O)[O-])cc([N+](=O)[O-])c1N | inactive: 4.2%
10 | Cc1ccc(N/C(=N/P(=O)(N2CCOCC2)N2CCOCC2)N2CCOCC2)cc1 | inactive: 4.87%
11 | CN(C(=O)Cc1ccc(Cl)c(Cl)c1)[C@H]1CCCC[C@H]1N1CCCC1 | inactive: 2.69%
12 | CCN(N=Nc1nonc1N)c1nonc1N | inactive: 2.91%
13 | Nc1cccc2ccc([As](=O)(O)O)cc12 | inactive: 1.11%
14 | O=[N+]([O-])c1cc([N+](=O)[O-])c(CCN2CCOCC2)c([N+](=O)[O-])c1 | inactive: 2.48%
15 | Cc1ccc(NP(=O)(Oc2ccccc2F)Oc2ccccc2F)nc1 | inactive: 2.97%
16 | CCOP(=O)(Nc1ccccc1)OCC | inactive: 3.38% and inactive: 1.4%
17 | Cc1cc(SC(NC(=O)c2ccc(F)cc2)C(Cl)(Cl)Cl)ncn1 (stereo unspecified) | inactive: 1.86%
18 | O=C(O)c1ccccc1[As](=O)(O)O | inactive: 1.64%
19 | CC(=O)Nc1ccc([As](=O)(O)O)cc1 | inactive: 4.09%
20 | O=P(Nc1nc2ccc(Cl)cc2s1)(c1ccccc1)c1ccccc1 | inactive: 6.06%
21 | O=[N+]([O-])c1cccc(NC2=NCC(CBr)S2)c1 (stereo unspecified) | inactive: 6%
22 | O=C(O)CNc1ccc([As](=O)(O)O)cc1 | inactive: 3.53%
23 | CC(C)(C)C(=O)NC(Sc1ccncn1)C(Cl)(Cl)Cl (stereo unspecified) | inactive: 1.87%
24 | O=[N+]([O-])c1ncn(CCn2ncnc2[N+](=O)[O-])n1 | inactive: 2.85%
25 | O=C(Nc1cc([As](=O)(O)O)ccc1O)c1ccccc1 | inactive: 4.26%
26 | CN(C)C(=O)OCCc1n(C)cc[n+]1C | inactive: -1.36%

Row | Compound | activation
27 | CC(C)=N/N=C(\N)N[N+](=O)[O-] | inactive: 3.1%
28 | CC1CCN(C(=O)Oc2c(Cl)cc(Cl)c3cccnc23)CC1 | inactive: 8.37%
29 | C[N+]1=C2C=CC=CC=C2SC12C([N+](=O)[O-])=CC([N+](=O)[O-])=C[C-]2[N+](=O)[O-] (stereo unspecified) | inactive: 9.81%
30 | Nc1ccc([As](=O)(O)c2ccc(N)cc2)cc1 | inactive: 0.339%
31 | CCN(/C(=N/P(=O)(N1CCOCC1)N1CCOCC1)N1CCOCC1)c1ccc(OC)cc1 | inactive: -0.301%
32 | CC(=O)N1C2C3N(C(C)=O)C1C1N(C(C)=O)C(C(N1C(C)=O)N3C(C)=O)N2C(C)=O | inactive: 1.03%
33 | O=[N+]([O-])c1cccc2n[nH]nc12 | inactive: 2.49%
34 | O=[N+]([O-])c1cc([N+](=O)[O-])c(CCNc2ccccc2)c([N+](=O)[O-])c1 | inactive: 1.47%
35 | CCc1nc2c(n1)c1c(non1O)c1c2no[n+]1[O-] | inactive: 1.15%
36 | Cc1ccc(NP(=O)(Oc2ccccc2)Oc2ccccc2)nc1 | inactive: 0.19%
37 | COc1ccc(C2=NCC(CBr)S2)cc1 (stereo unspecified) | inactive: 1.22%
38 | c1nnnn1CCn1cnnn1 | inactive: 2.04%
39 | O=P(Nc1nccs1)(c1ccccc1)c1ccccc1 | inactive: 0.977%
40 | CC(C)C(=O)NC(Sc1ccccc1)C(Cl)(Cl)Cl (stereo unspecified) | inactive: -0.224%
41 | Nc1ccc([As](=O)(O)c2ccc([N+](=O)[O-])cc2)cc1 | inactive: 0.909%
42 | C(Cc1nn[nH]n1)Cc1nn[nH]n1 | inactive: 0.2%
43 | O=C(OC1CN2CCC1CC2)c1cccc(Cl)c1 (stereo unspecified) | inactive: 5.3%
44 | O=[N+]([O-])c1ncn(CCn2cnc([N+](=O)[O-])n2)n1 | inactive: 1.52%
45 | CC(=O)NC(SC(=S)N(C)C)C(Cl)(Cl)Cl (stereo unspecified) | inactive: 5.6%
46 | O=[N+]([O-])c1ccc(O)c(/C=N/Nc2ccc([N+](=O)[O-])cc2[N+](=O)[O-])c1 | inactive: 23.5%
47 | O=[As](O)(c1ccccc1)c1ccc(O)cc1 | inactive: 3.24%
48 | C[C@H]1OP(=O)(Oc2ccccc2)[C@H](O)[C@H](O)[C@H]1N=[N+]=[N-] (stereo partly specified) | inactive: 3.87%
49 | O=P(Nc1nc2ccccc2s1)(c1ccccc1)c1ccccc1 | inactive: 1.13%
50 | CN(C)C1(CNC(=O)c2ccc(Cl)c(S(N)(=O)=O)c2)CCCCC1 | inactive: 1.07%
51 | O=P(Nc1ccccn1)(c1ccc(Br)cc1)c1ccc(Br)cc1 | inactive: 2.39%
52 | CN(C)C(=O)Oc1noc2ccccc12 | inactive: 3.06%

Row | Compound | activation
53 | O=c1c2cc([N+](=O)[O-])ccc2[nH]c2c([N+](=O)[O-])cc([N+](=O)[O-])cc12 | active: 37.5%
54 | Cc1ccccc1OP(=O)(Nc1ccccn1)Oc1ccccc1C | inactive: 1.56%
55 | Cc1ccc(OP(=O)(Nc2ccccn2)Oc2ccc(C)cc2)cc1 | inactive: 1.23%
56 | CC(=O)NC(SC(=S)N(CC(C)C)CC(C)C)C(Cl)(Cl)Cl (stereo unspecified) | inactive: 1.77%
57 | COC(=O)c1cc2c(s1)N=C(c1ccccc1)N(C)P2(=O)N1CCOCC1 (stereo unspecified) | inactive: 1.71%
58 | CCC(=O)N1C2C3N(C(=O)CC)C1C1N(C(=O)CC)C(C(N1C(=O)CC)N3C(=O)CC)N2C(=O)CC | inactive: 2.24%
59 | O=C(OC1CN2CCC1CC2)c1ccccc1 (stereo unspecified) | inactive: 3.4%
60 | O=C(NC1CCS(=O)(=O)C1)NP(=S)(Oc1ccccc1)Oc1ccccc1 (stereo unspecified) | inactive: 5.08%
61 | CCNC(=S)/N=C(\N)N[N+](=O)[O-] | inactive: 2.66%
62 | CCOC(=O)NC(Sc1ccccc1)C(Cl)(Cl)Cl (stereo unspecified) | inactive: 2.49%
63 | Cc1ccc(NP(=O)(Oc2cccc(C)c2)Oc2cccc(C)c2)nc1 | inactive: 1.35%
64 | c1ccc(-c2nn[nH]n2)c(-c2nn[nH]n2)c1 | inactive: 4.41%
65 | CC(=O)Nc1ccc(Oc2c([N+](=O)[O-])cc([N+](=O)[O-])cc2[N+](=O)[O-])cc1 | inactive: 0.487%
66 | CC(=O)Nc1ccc([As](=O)(O)O)c(O)c1 | inactive: 1.84%
67 | CC(=O)c1ccc(N2CC2c2ccncc2)cc1 (stereo unspecified) | inactive: 4.96%
68 | C[C@@H]1C=CCP(=O)(Oc2ccccc2)O1 (stereo partly specified) | inactive: 3.3%
69 | C[C@H]1OP(=O)(Oc2ccccc2)C[C@@H]2O[C@@H]21 (stereo partly specified) | inactive: 3.27%
70 | Cc1ccccc1CN(C)C(=O)COC(=O)C(O)(c1ccccc1)c1ccccc1 | inactive: 3.83%
71 | CC(C)(C)C(=O)NC(Sc1ccccc1)C(Cl)(Cl)Cl (stereo unspecified) | inactive: 0.224%
72 | CCOc1ccc(C2=NCC(CBr)S2)cc1 (stereo unspecified) | inactive: 0.0712%
73 | O=P1(Nc2nc3ccc(Cl)cc3s2)COc2ccccc2O1 (stereo unspecified) | inactive: 0.475%
74 | CCOP(=O)(Nc1cccc2ccccc12)OCC | inactive: 6.76%
75 | COc1cc(C2NCCC3(OCCO3)C2(C)C)cc(OC)c1OC (stereo unspecified) | inactive: 2.38%
76 | CCCOP(=S)(Nc1nc(N)cc(=O)[nH]1)OCCC | inactive: 1.81%
77 | Nc1cccc2c([As](=O)(O)O)cccc12 | active: 31.8%
78 | Cc1ccc(NCCc2c([N+](=O)[O-])cc([N+](=O)[O-])cc2[N+](=O)[O-])cc1 | inactive: 4.76%

Row | Compound | activation
79 | O=[As](O)(c1cccc(O)c1)c1cccc(O)c1 | inactive: 1.38%
80 | Cc1cccc(OCC(=O)OC2CN3CCC2CC3)c1 (stereo unspecified) | inactive: 0.0229%
81 | CS(=O)(=O)c1ccc(Cl)c(NC(=O)COC(=O)C(O)(c2ccccc2)c2ccccc2)c1 | inactive: 9%
82 | COc1cc(C(=O)NCC2(N3CCOCC3)CCCCC2)cc(Cl)c1OC(C)C | inactive: 0.681%
83 | O=[As](O)(O)c1cccnc1 | inactive: 2.02%
84 | O=C(OC1CN2CCC1CC2)c1ccc(Cl)cc1 (stereo unspecified) | inactive: 6.15%
85 | O=[N+]([O-])c1ccc2c(c1)nnn2O | inactive: 0.776%
86 | CCOP1(=S)c2c(C)nn(CCC#N)c2N=C(c2ccc(F)cc2)N1C (stereo unspecified) | inactive: 0.676%
87 | CN(C(=O)Cc1ccccc1)[C@@H]1CC[C@]2(CCCO2)C[C@H]1N1CCCC1 | inactive: 0.447%
88 | N#CCCN(C(=O)COC(=O)C(O)(c1ccccc1)c1ccccc1)c1ccc(F)cc1 | inactive: 7.64%
89 | NC(=O)Nc1ccc([As](=O)(O)O)cc1 | inactive: 3.63%
90 | O=C(O)COc1ccc([As](=O)(O)O)cc1[N+](=O)[O-] | inactive: 0.918%
91 | Nc1ccccc1[As](=O)(O)c1ccccc1 | inactive: 2.53%
92 | CS(=O)(=O)c1cc([N+](=O)[O-])c2no[n+]([O-])c2c1 | inactive: 12.8%
93 | O=P(Nc1nccs1)(c1ccccc1)c1nc2ccccc2s1 (stereo unspecified) | inactive: 1.36%
94 | O=P(Nc1nccs1)(Oc1ccccc1)Oc1ccccc1 | inactive: 1.03%
95 | CCOP1(=S)c2c(C)nn(CCC#N)c2N=C(c2ccccc2F)N1C (stereo unspecified) | inactive: -0.308%
96 | NS(=O)(=O)c1cccc(NC(=O)COC(=O)C(O)(c2ccccc2)c2ccccc2)c1 | inactive: 3.61%
97 | O=P1(Nc2ccc(Br)cn2)COc2ccccc2OC1 | inactive: 3.7%
98 | O=[As](O)(c1cccs1)c1cccs1 | inactive: 7.03%
99 | Cc1ccc(OCC(=O)OC2CN3CCC2CC3)cc1 (stereo unspecified) | inactive: 4.06%
100 | Nc1cccc([As](=O)(O)c2ccccc2)c1 | inactive: 6.71%
101 | O=P1(Nc2ncccn2)COc2ccccc2OC1 | inactive: 2.26%
